Data published in patent US20100234385A1, “Compsition Containing Biopterin and Method for Using The Same” (Kaneka Corporation, priority 2006, published 2010).

What was measured:
[1] = Biopterins and BH4 in urine after single-dose oral or intraperitoneal administration to normal mice; format: in vivo; conditions: normal C57-BL/6J mice, 20 mg/kg oral or intraperitoneal single dose, urine 6 hours later; either administration method
Protocol: In Example 4, an experiment was carried out in the same manner as Example 1 with the exception of the test mice, dosages, administration site (intraperitoneal administration) and sampling site. More specifically, biopterin was administered orally or intraperitoneally to normal C57-BL/6J mice (acquired from Japan SLC, Inc., age 8 to 10 weeks, males) in groups of 2 animals each at a dosage of 20 mg/kg, and the total amount of biopterins contained in urine samples collected 6 hours later were quantified.

[2] = Amounts of biopterins and BH4 in liver, kidneys and brain after single-dose oral administration to hph-1 mice; format: in vivo; conditions: 10 mg/kg oral single dose, 3 hours later
Protocol: Mutated hph-1 mice having low levels of BH4 in the body due to a mutation in the regulatory region of GTP cyclohydrolase 1 (GTPCH1) gene, which is one of the genes involved in biosynthesis of BH4 (males, age 6 weeks, able to be acquired and produced by a person with ordinary skill in the art based on the description of Vernon C. Bode, et al., Genetics, 118, 299-305 (1988)), were used for the test mice. Biopterin was administered orally (suspended in 2% carboxymethyl cellulose solution (CMC solution)) at 10 mg/kg (amount of biopterin per 1 kg of body weight) to 4 test animals. 2 test animals were administered 2% CMC solution only for use as controls (comparative examples) thereof.
Each of the mice were autopsied 3 hours later, and the liver, kidneys and brain were excised and weighed followed by rapid-freezing in liquid nitrogen and storing at −80° C. The frozen organs were partially thawed followed by the addition of 5 volumes of 0.1 N HCl and homogenizing with a homogenizer. […]
Quantification of biopterins was carried out in accordance with the method described in the prescribed literature (Fukushima, T., Nixon, J C., Anal. Biochem., 102, 176-188 (1980)). Namely, since biopterins are completely oxidized to biopterin in the case of iodine oxidation under acidic conditions, the entire amount of biopterins can be quantified. On the other hand, since only BH4 is oxidized to pterin while other biopterins are oxidized to biopterin in the case of iodine oxidation under alkaline conditions, the entire amount of biopterins other than BH4 can be quantified. Thus, the amount of BH4 can be quantified utilizing the difference between acidic conditions and alkaline conditions. Furthermore, analysis of biopterin was carried out by high-performance liquid chromatography (column: Fine-SIL C18T-5, eluent: aqueous 7% methanol solution, detection: fluorescence, excitation: 350 nm, detection: 450 nm).

[3] = BH4 concentration in the brain after oral administration for 3 consecutive days to hph-1 mice; conditions: 5 mg/kg oral, 3 consecutive days at 24-hour intervals, 2.5 hours after final dosing, versus non-dose group
[4] = Blood BH4 concentrations during oral administration for 6 consecutive days to hph-1 mice; format: in vivo; conditions: hph-1 mice, 0.5, 0.7, 1 and 2 mg/kg oral, 6 consecutive days at 24-hour intervals, blood every 48 hours; all dosages
Protocol: In Example 2, biopterin (0.5 mg/kg, 0.7 mg/kg, 1 mg/kg and 2 mg/kg) was orally administered for 6 consecutive days at 24-hour intervals to each of the hph-1 mice (age 10 weeks, males, total of 4 animals), and blood samples were collected every 48 hours. Quantification of blood BH4 concentrations was carried out in the same manner as Example 1 with the exception of using an acid-iodine solution (2% I2 and 3% KI in 0.5 N HCl) or alkaline-iodine solution (2% I2 and 3% KI in 1 N NaOH) in a composition exclusively for use with blood for a mixture 20 μL of blood and 80 μL of distilled water.

## 6-(L-erythro-1,2-dihydroxypropyl)-pterin or 7-(L-erythro-1,2-dihydroxypropyl)-pterin [biopterin]
[1]
  BH4 levels in urine: increased significantly
  biopterin levels (total biopterins) in urine: increased considerably
[2]
  BH4 ratio (BH4 among biopterins) in organs: high BH4 ratio was found to be maintained
[2]; versus 2% CMC controls
  amounts of BH4 among the biopterins in each of the organs (liver, kidneys, brain): increased significantly
  amounts of biopterins in each of the organs (liver, kidneys, brain): increased considerably
[3]
  intracerebral BH4 concentrations: remarkable increase
[4]
  blood BH4 concentrations: gradual increases
